Measured values: patent publication US20250051376A1, “BENZIMIDAZOLE DERIVATIVE COMPOUNDS AND USE THEREOF” (PHARMGEN SCIENCE, INC., priority 2021, published 2025)

Assays:
[1] = Water solubility test (pH 6.8); settings: 0.5M Tris-HCl pH 6.8; concentration when completely dissolved, by naked eye; highest concentration prepared 5.12 mg/ml
[2] = tested on: gastric acid secretion; experiment: Gastric acid releasing suppression ability test by oral administration (pylorus-ligated, histamine-stimulated rats); assay type: in vivo; settings: oral 3 mg/5 ml/kg in 0.5% methylcellulose, pylorus ligation 30 min after dosing, histamine s.c., gastric fluid collected 3 hours after surgery
Description: A week before the test, test animals (rats) were purchased and acclimatized. After acclimatization, food was removed the day before the test and fasting was performed for 24 hours using a fasting plate. The weight of each individual was measured, weight ranking was sequentially assigned to each group, and the average value of each group was randomly distributed so that the average value was evenly distributed. Test material (the embodiment compound and comparison compound) were used by dissolving them in 0.5% methylcellulose solution, and tegoprazan was used as a comparative compound. The prepared test material was orally administered to test animals at an amount of 3 mg/5 ml/kg, and 30 minutes later, inhalation anesthesia (3% isoflurane) was performed for 3 minutes using an inhalation anesthesia machine. After making a minimal incision in the upper abdomen about 1 cm below the left side of the sternum of an anesthetized test animal, the stomach was exposed, and the pyloric ring, which is the connection between the stomach and the duodenum, was ligated. The stomach and duodenum were restored to their original positions, and the laparotomy site was sutured well with surgical staplers. […] Efficacy was evaluated by calculating total acidity by combining the amount of gastric fluid and the amount of 0.01N NaOH required for titration.

Cc1nc2c(O[C@H]3CCOc4cc(F)cc(F)c43)cc(C(=O)N(C)C)cc2n1P(=O)(OC(C)C)OC(C)C
Solubility, pH 6.8 [1]: 0.01 mg/ml | gastric acid releasing suppression ability (% INH, Mean ± SD) [2]: 99.7 ± 0.2 % INH
